Experimental data as given in ChEMBL document CHEMBL1131002, “2beta-Substituted analogues of 4'-iodococaine: synthesis and dopamine transporter binding potencies” (J Med Chem, 1998).

Protein sequences, listed by entry. Tags and fused reporters are not part of them.
UniProt P23977, whole entry: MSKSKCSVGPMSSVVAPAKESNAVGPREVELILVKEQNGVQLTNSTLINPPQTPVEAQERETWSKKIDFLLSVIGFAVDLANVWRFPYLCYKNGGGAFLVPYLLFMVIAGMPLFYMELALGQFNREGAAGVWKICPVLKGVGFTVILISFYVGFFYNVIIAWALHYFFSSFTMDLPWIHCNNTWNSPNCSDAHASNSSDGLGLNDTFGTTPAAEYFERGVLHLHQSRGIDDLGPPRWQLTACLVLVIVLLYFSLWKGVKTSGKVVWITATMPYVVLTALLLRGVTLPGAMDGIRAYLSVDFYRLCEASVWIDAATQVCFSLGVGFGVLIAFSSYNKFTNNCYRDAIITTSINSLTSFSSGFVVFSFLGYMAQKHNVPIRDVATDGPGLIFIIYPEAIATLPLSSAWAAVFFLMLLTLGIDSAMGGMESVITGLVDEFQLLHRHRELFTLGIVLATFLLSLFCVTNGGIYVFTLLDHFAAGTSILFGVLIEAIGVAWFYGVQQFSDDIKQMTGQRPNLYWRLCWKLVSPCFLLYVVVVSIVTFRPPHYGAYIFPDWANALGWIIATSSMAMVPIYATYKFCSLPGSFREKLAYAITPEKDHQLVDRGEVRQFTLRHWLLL

Biological target: Sodium-dependent dopamine transporter (Rattus norvegicus, UniProt P23977)
Experiment: Inhibition of dopamine Transporter Affinity against rat whole brain using [3H]WIN-35428 as radioligand
Assay type: tissue-based

COC(=O)[C@@H]1C2CCC(C[C@@H]1OC(=O)c1ccc(I)cc1)N2C (stereo partly specified)
IC50: 2520 nM
